Key:
Human recombinant MAO A = Human recombinant MAO A (Homo sapiens (Human), UniProt P21397); assay: MAO A inhibition, peroxidase-coupled assay with kynuramine as substrate; type: biochemical
Mouse recombinant LSD2 = Mouse recombinant LSD2 (Mus musculus (Mouse), UniProt Q8CIG3); assay: LSD2 inhibition, peroxidase-coupled assay with histone H3 peptide di-methylated at Lys4; type: biochemical

The chains behind the UniProt entries cited, without tags or fusion partners. Where a name states a change or a piece, a line headed by the entry shows the natural chain unless it says otherwise.
UniProt P21397, whole entry, looked up: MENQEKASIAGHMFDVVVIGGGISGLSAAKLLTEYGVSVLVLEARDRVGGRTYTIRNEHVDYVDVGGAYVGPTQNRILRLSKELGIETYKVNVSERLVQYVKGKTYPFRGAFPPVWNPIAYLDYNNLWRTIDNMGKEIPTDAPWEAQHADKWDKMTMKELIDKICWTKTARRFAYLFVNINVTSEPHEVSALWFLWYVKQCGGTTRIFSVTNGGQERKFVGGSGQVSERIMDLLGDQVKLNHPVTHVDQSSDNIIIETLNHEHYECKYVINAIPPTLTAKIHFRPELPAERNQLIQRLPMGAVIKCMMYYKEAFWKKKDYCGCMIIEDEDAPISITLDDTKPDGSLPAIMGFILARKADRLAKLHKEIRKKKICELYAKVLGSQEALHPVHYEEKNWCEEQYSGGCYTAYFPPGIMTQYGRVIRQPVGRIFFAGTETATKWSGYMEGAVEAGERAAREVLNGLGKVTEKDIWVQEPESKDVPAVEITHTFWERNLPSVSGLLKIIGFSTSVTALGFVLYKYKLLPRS
UniProt Q8CIG3: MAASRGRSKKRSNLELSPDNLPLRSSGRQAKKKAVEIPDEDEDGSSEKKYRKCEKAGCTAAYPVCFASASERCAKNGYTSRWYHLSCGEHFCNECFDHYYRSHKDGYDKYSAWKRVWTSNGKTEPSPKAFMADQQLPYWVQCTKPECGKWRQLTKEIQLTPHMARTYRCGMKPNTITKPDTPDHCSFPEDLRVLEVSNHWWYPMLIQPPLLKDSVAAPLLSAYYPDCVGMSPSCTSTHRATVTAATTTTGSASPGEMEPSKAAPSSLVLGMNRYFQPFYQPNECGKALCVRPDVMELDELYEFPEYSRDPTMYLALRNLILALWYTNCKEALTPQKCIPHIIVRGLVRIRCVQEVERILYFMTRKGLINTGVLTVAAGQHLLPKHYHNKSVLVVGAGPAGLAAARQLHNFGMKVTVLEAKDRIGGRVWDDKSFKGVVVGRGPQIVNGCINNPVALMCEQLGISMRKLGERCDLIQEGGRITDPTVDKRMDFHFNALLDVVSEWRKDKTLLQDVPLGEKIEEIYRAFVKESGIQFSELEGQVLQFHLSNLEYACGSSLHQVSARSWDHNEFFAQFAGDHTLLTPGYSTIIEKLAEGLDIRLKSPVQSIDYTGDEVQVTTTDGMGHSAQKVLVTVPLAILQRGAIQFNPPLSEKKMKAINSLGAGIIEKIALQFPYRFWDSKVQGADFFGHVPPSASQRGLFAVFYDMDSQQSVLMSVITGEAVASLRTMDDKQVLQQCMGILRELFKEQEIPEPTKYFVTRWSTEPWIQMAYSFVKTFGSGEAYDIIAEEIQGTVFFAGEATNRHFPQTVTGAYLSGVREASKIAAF

## Cl.NC1CC1c1ccc(NC(=O)C(Cc2ccccc2)NC(=O)OCc2ccc(Br)cc2)cc1 (stereo not drawn) [Compound 7, trans 4-bromobenzyl 1-(4-(2-aminocyclopropyl)phenylamino)-1-oxo-3-phenylpropan-2-ylcarbamate]
Human recombinant MAO A
  MAO A inhibition: +
Mouse recombinant LSD2
  LSD2 inhibition: +

From US8765820B2, “Tranylcypromine derivatives as inhibitors of histone demethylases LSD1 and/or LSD2” (Universita Degli Studi di Roma “La Sapienza”, priority 2010, dated 2014)
